{"sequences": {"note": "Sequences of proteins named here, by UniProt entry; tags and fusion partners are left off. A change or cut given only in a name is not applied to a line headed by its entry.", "UniProt P15428": "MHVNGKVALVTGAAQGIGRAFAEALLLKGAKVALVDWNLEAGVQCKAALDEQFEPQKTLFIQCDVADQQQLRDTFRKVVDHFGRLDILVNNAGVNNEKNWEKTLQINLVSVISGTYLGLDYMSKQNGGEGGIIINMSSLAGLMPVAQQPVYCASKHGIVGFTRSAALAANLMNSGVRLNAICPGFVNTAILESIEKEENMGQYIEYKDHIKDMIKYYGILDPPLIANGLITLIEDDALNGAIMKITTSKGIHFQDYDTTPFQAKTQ"}, "source": "PubChem BioAssay AID2429", "about": "(National Center for Advancing Translational Sciences (NCATS), 2010)", "target": "15-hydroxyprostaglandin dehydrogenase [NAD(+)] (Homo sapiens) (UniProt P15428)", "experiment": "Confirmation qHTS Assay for Inhibitors of HPGD (15-Hydroxyprostaglandin Dehydrogenase)", "conditions": "recombinant HPGD, NADH fluorescence, PGE2 substrate", "description": "Assay Overview: Human 15-Hydroxyprostaglandin dehydrogenase (HPGD) catalyzes the inactivation of prostaglandin E2, and plays a major role in cancer biology by antagonizing the oncogenic potential of cyclooxygenase type 2 (COX2). Assays are available, based on absorbance/fluorescence increase of NADH with the substrate 15-OH prostaglandin E2. Inhibition of HPGD activity was screened by utilizing prostaglandin as an electron donor and NAD+ as an electron acceptor/cofactor. An increase in the fluorescence intensity due to conversion of NAD+ to NADH was used to measure the enzyme activity. This assay is a confirmation screen of primary qHTS protocol (See AID 894). References 1. Myung SJ, Rerko RM, Yan M, Platzer P, Guda K, Dotson A, Lawrence E, Dannenberg AJ, Lovgren AK, Luo G, Pretlow TP, Newman RA, Willis J, Dawson D, Markowitz SD. 15-Hydroxyprostaglandin dehydrogenase is an in vivo suppressor of colon tumorigenesis. Proc Natl Acad Sci U S A. 2006 Aug 8;103(32):12098-102. 2. […]\nBuffer: 50 mM Tris-HCl, 0.01% Tween 20, pH 8. […] The plates were immediately transferred to and read 5 times every 30 seconds on ViewLux High-throughput CCD imager (Perkin-Elmer) using 360 nm excitation and 450 nm emission fluorescence protocol. The fluorescence intensity difference between the last and the first time points was used to compute reaction progress.", "note": "Only a part is listed here, and it is no random draw. Activity calls are given as the source filed them. Calls follow the shape of the full dose curve.", "data": [{"smiles": "N#Cc1ccccc1CSc1nc2ncc(Br)cc2[nH]1", "values": [{"measurement": "Potency", "result": "active: 141 nM"}]}]}
